The assay has as its target recombinant human Icmt (Homo sapiens, UniProt O60725). The assay can be described thus: Icmt assay: [3H]methyl incorporation from [3H]AdoMet into BFC. It is filed as biochemical.

The chains behind the UniProt entries cited, without tags or fusion partners.
UniProt O60725, whole entry: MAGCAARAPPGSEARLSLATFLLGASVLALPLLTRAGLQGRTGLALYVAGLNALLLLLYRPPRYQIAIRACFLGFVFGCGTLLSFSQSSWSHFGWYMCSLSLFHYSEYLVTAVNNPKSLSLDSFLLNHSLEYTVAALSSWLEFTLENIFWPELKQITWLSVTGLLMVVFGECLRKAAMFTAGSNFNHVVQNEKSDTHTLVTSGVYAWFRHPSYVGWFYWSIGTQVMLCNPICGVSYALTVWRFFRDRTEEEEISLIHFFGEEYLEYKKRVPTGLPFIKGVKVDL

These results are taken from US7964629B2, “Inhibitors of isoprenylcysteine carboxyl methyltransferase” (Duke Universtiy, priority 2005, dated 2011).

Molecules are shown by their SMILES. Where two headings read alike, the source gives them in different places.

A word on the IC50: it is the concentration needed to halve the response being measured. Turning to `Cc1cccc(-c2ccc3c(c2)c(CC(N)=O)cn3Cc2ccc3ccccc3c2)c1`, the IC50 reads like this: (Table 1, R1 substituent x scaffold matrix) 17.2 µM; (read-out: IC50 No PI, Table 3, without pre-incubation of the enzyme with the compound) 17.2 µM; (read-out: IC50 PI, Table 3, pre-incubation with Icmt for 30 min at 37° C.) 1.34 µM.
